This experiment addresses Kpc2 beta-lactamase (class A) (Klebsiella pneumoniae, UniProt Q9F663). The format is biochemical. Particulars: nitrocefin reporter.

Protein sequences, listed by entry. Tags and fused reporters are not part of them. Residues count along the entry.
UniProt Q9F663, 25-293 limits assumed: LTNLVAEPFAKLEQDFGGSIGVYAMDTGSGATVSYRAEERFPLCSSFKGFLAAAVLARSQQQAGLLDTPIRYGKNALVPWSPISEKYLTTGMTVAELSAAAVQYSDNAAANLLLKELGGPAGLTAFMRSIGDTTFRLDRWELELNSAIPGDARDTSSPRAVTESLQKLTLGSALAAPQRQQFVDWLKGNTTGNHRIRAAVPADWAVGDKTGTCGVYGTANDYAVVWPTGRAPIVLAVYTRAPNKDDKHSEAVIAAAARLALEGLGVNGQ

In the case of `Cc1onc(-c2ccccc2)c1C(=O)N[C@@H]1C(=O)N2[C@@H]1SC(C)(C)[C@@H]2C(=O)O` [Penstapho ®], the “hydrolysis rate symbol, (Vmax/V0)-1” value is recorded as “+ (0.1-1)”.

The values above are taken from US20220317138A1, “METHODS FOR DETERMINING THE CONCENTRATION OF A CARBAPENEM ANTIBIOTIC IN A BIOLOGICAL SAMPLE” (priority 2019, published 2022).
